The record followed here is US20260176254A1, “INHIBITORS OF PROSTATE SPECIFIC MEMBRANE ANTIGEN AND USE THEREOF” (SHANGHAI SINOTAU BIOTECH. CO., LTD, priority 2023, published 2026).

Data set [1] in a line: Tissue biodistribution in 22Rv1 tumor mouse model. The conditions noted are these: male, nude, in vivo, iv, total radioactivity. Also noted: species or system mice. The source says:
(§1) LnCAP and 22RV1 CDX xenograft tumor models were generated by inoculating 5×10^6 cells/site subcutaneously in male SCID or nude mice (Vital River), respectively. Animals were housed according to IACUC guidance and had accessed to food and water ad libitium. Animals were used for biodistribution study when the tumor dimensions reached around 0.2-0.3 cm^3. […] At each tome point, animals were sacrificed and tissues were collected, weighted, and subjected to radioactivity measurements using gamma counter. Radioactivity in the tissues was presented in % ID/g (percent of injected dose per gram).

Data set [2] can be described thus: Tissue biodistribution in LnCAP tumor mouse model. The arrangement: species or system mice. The conditions noted are these: male, SCID, in vivo, iv, total radioactivity.
Excerpt: as §1

For `O=C(O)CC[C@H](NC(=O)N[C@@H](CCCCNC(=O)[C@H](Cc1ccc2ccccc2c1)NC(=O)[C@H]1CC[C@H](CNC(=O)CN2CCN(CC(=O)O)CCN(CC(=O)O)CCN(CC(=O)O)CC2)CC1)C(=O)O)C(=O)O` [[^177Lu]Lu-PSMA-617, metal not drawn, reference compound], in data set [1], the tissue uptake dose at 168 h is 0.2 %ID. In addition, the tissue uptake at 72 h stood at 0.02 ± 0.02 %ID/g in data set [1] (Tissue biodistribution: Blood) and 0.02 ± 0.01 %ID/g in data set [2] (Tissue biodistribution: Blood). Also, the tissue uptake at 168 h in data set [1] (Tissue biodistribution: Blood) and in data set [2] (Tissue biodistribution: Blood) was 0.02 %ID/g throughout. The figures for the tissue uptake at 24 h in data set [1] (Tissue biodistribution: Muscle) and in data set [2] (Tissue biodistribution: Muscle) were 0.01 %ID/g and 0.02 %ID/g, respectively.
